By UniProt entry, the sequences of proteins in these tests, tags left out. Residues count along the entry.
UniProt O15530, 51-359: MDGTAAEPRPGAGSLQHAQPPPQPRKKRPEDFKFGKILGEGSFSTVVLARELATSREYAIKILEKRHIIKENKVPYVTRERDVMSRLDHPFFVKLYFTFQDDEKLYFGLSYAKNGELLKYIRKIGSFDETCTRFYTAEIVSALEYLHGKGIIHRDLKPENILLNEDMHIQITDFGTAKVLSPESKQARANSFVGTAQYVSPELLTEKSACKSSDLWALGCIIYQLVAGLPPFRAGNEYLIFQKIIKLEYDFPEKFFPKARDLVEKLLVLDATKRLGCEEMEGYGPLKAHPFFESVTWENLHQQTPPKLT

According to patent publication US10030016B2 (Sunesis Pharmaceuticals, Inc., priority 2009, dated 2018):

Tests used:
[1] = tested on: phospho-akt (Thr308) in PC-3 cells; experiment: Inhibition of phospho-akt (Thr308) in PC-3 cells, MSD phospho-akt 308 ELISA kit; type: cell-based; details: Homo sapiens, PC-3, 2 h
Experimental: PC-3 cells were harvested by trypsin and counted. Cells were plated in coated 96-well flat bottom plates (plate 15,000 cells/well in 100 ul growth media (10% FBS, 1× pen-strep) an place in an incubator overnight.
Subject inhibitors were stocked at 50 mM, then diluted to 30 mM (4.8 μl cpd plus […] DMSO) in 100% DMSO. Three-fold dilutions were performed from 30 mM stock. (4 μl into 8 ul 100% DMSO). Aliquots of 1.0 μl of inhibitor solution were transferred into SF Medium (using deep well block).
Control wells were prepared as follows. For DMSO high controls, 1.0 μl of 100% DMSO was added into 1.0 ml SF. For low controls for PC-3 cells, 5 μM of Wortmannin (10 μl of 1 mM Wortmannin stock was added into 2 ml SF Medium. The supernatant media was removed and the plate was blotted. 100 μl of controls/media or compound/media were added to cells and placed in incubator for 2 hours. The supernatant media was removed and the plate was blotted. 55 μl of the MSD complete lysis buffer was added (10 mls Tris Lysis buffer, 200 ul protease inhibitor, 100 ul phosphatase inhibitor 1, and 100 ul phosphatase inhibitor II). The plate was placed on a plate shaker for 60 mins at 4 deg. […]
25 μl of Ab detection solution was added to each well. […] 150 μl of Read Buffer was added (5 mls 4×MSD Read Buffer+15 mls water). Finally the plate was read immediately on the MSD plate reader.

[2] = target: PDK1 (Homo sapiens (Human), UniProt O15530); experiment: PDK1 kinase assay (coupled PDK1/AKT/FAM-crosstide assay, IMAP fluorescence polarization); type: biochemical
Experimental: A PDK1 kinase assay was performed as follows. PDK1 (amino acids 51-359) and AKT2 (amino acids 140-467 fused to PIFtide, amino acids […]) were expressed as N-terminally tagged GST fusion proteins in insect cells and purified to homogeneity. Enzyme activity was determined in a coupled PDK1/AKT/FAM-crosstide assay and phosphorylation of FAM-crosstide was determined by standard IMAP protocol (Molecular Devices). For inhibition studies, compounds were titrated 4-fold in DMSO and diluted 40-fold into assay buffer (10 mM Tris HCl pH7.2; 10 mM MgCl2; 0.01% Triton X-100; 1 mM DTT) containing PDK1, AKT2, and FAM-crosstide (final concentrations: 0.75 nM PDK1, 10 nM unphosphorylated AKT2, and 100 nM crosstide substrate). The kinase reaction was initiated by adding ATP to a final concentration of 40 μM of PDK1 and incubated at 25° C. for 30 min. To detect assay product, the kinase reaction was combined with Progressive Binding Solution (1:600 Progressive Binding Reagent, 50% Buffer A, 50% Buffer B, Molecular Devices) in a 1:3 ratio. […] The fluorescence polarization value “P” is defined by the equation below. […]
Where “par” is fluorescence intensity parallel to the excitation plane; and “perp” is fluorescence intensity perpendicular to the excitation plane. ΔmP values were plotted as a function of compound concentration and the data were analyzed with a 4-parameter fit using GraphPad Prism software.

COc1cc(NC(=O)c2cccnc2NCc2ccc(-c3ccc4ncnc(N)c4c3)s2)ccc1F [Example 3.54, 2-({[5-(4-aminoquinazolin-6-yl)thiophen-2-yl]methyl}amino)-N-(4-fluoro-3-methoxyphenyl) pyridine-3-carboxamide (TFA salt)]
EC50 [1]: > 10 µM | IC50 [2]: 1 to 5 µM

Where a name gives a salt, the structure may show the parent alone.
